The test system of this data set is canine kidney epithelial cells (MDCK cells). Put plainly: Toxicity to canine kidney epithelial cells (MDCK), cytopathic changes. On the procedure: 2. […] The maximum non-toxic concentration (TC0) of the medicament was taken as the minimum dilution times of the medicament without cytopathic changes, and the median toxic concentration (TC50) of the medicament was calculated by the Reed-Muench formula. 3. Experimental results
• (1) Medicaments: same as Embodiment 5; • (2) Other experimental materials were the same as those in Embodiment 3. 2. Experimental procedure: refer to Embodiment 3. 3. Experimental results
In general terms: Damage to the host cells serves as the signal in cytopathic effect assays.

Molecules are shown by their SMILES.

Consider 1 molecule from patent US12064444B2, “Application of tannic acid in preparation of medicament against respiratory viruses” (priority 2020, dated 2024).

Turning to `NC(=O)c1ncn([C@@H]2O[C@H](CO)[C@@H](O)[C@H]2O)n1` [Ribavirin], where the note is “compositions, mass ratio 1:1”, the TC0 was found to be 160.00 µg/mL. Moreover, under “cytopathic changes”, the “TC0 (maximum non-toxic concentration)” value was 655.17 µM.
